Laboratory results from ChEMBL document CHEMBL4808169, “Discovery of Potent and Fast-Acting Antimalarial Bis-1,2,4-triazines” (J Med Chem, 2021).

Columns and labels:
Type in all cases: functional
Plasmodium falciparum [1] = test: Selectivity ratio of IC50 for Plasmodium falciparum K1 to IC50 for Plasmodium falciparum NF54
Plasmodium falciparum [2] = test: Selectivity ratio of IC50 for Plasmodium falciparum 7G8 to IC50 for Plasmodium falciparum NF54
Plasmodium falciparum [3] = test: Selectivity ratio of IC50 for Plasmodium falciparum TM90C2B to IC50 for Plasmodium falciparum NF54
Plasmodium falciparum [4] = test: Selectivity ratio of IC50 for Plasmodium falciparum RF12 to IC50 for Plasmodium falciparum NF54
Plasmodium falciparum [5] = test: Selectivity ratio of IC50 for Plasmodium falciparum MRA1240 to IC50 for Plasmodium falciparum NF54
Plasmodium falciparum [6] = test: Selectivity ratio of IC50 for Plasmodium falciparum Dd2 (DDD107498) to IC50 for Plasmodium falciparum NF54
Plasmodium falciparum [7] = test: Selectivity ratio of IC50 for Plasmodium falciparum Dd2 to IC50 for Plasmodium falciparum NF54
Plasmodium falciparum [8] = test: Selectivity ratio of IC50 for Plasmodium falciparum Dd2 (MMV048) to IC50 for Plasmodium falciparum NF54
Plasmodium falciparum [9] = test: Selectivity ratio of IC50 for Plasmodium falciparum Dd2 (DSM265) to IC50 for Plasmodium falciparum NF54
Plasmodium falciparum [10] = test: Selectivity ratio of IC50 for Plasmodium falciparum Dd2 (GNF156) to IC50 for Plasmodium falciparum NF54
Plasmodium falciparum [11] = test: Selectivity ratio of IC50 for Plasmodium falciparum Dd2 (ELQ300) to IC50 for Plasmodium falciparum NF54

Measured: Ratio IC50

CCCOc1nncc(-c2cnnc(OCCN(C)C)n2)n1
1.1: all assays above
